The text below walks through data of publication PMC12667295, “A surrogate barrier model for high-throughput blood-brain barrier permeability prediction: integrating LLC-PK1-MOCK/MDR1 Cells and lysosomal trapping correction” (Drug Delivery, 2025).

A short description of data set [1]: in vitro. Conditions: pig, LLC-PK1 MOCK cell monolayer (Transwell), pH 7.4.
In data set [2] the test system is P-gp (human MDR1). The data set is described as follows: in vitro. Particulars: pig, LLC-PK1, pH 7.4.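 Further: 2 h incubation at 37 °C, receiver HBSS with 10 mM Hepes plus 1% BSA, LC-MS/MS of donor and receiver, recovery as receiver plus donor amount over initial donor amount.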
A short description of data set [3]: Bidirectional transport across LLC-PK1 MOCK monolayer (Transwell).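 Further: compound quantified by LC-MS/MS in donor and receiver wells, efflux ratio as B-A over A-B Papp, recovery relative to initial donor amount.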 Conditions: pig, LLC-PK1 MOCK cell monolayer (Transwell), pH 7.4, Recovery after correction of intracellular accumulation data, A-B, cell lysate included, mean±SD, n=3.

In the case of `Nc1nnc(-c2cccc(Cl)c2Cl)c(N)n1` [Lamotrigine], the recovery at 2 h, 2 µM in data set [1] was determined as 119 ± 6.58%. With `CCC1(c2cnc[nH]2)Cc2ccccc2C1` [Atipamezole], the values for the recovery at 2 h, 2 µM in data set [1] and in data set [2] were 117 ± 7.46% and 118 ± 11.1%, respectively.

Molecule `CCN(CC)CCNC(=O)c1c(C)[nH]c(/C=C2\C(=O)Nc3ccc(F)cc32)c1C` [Sunitinib] came in with a recovery at 2 h, 2 µM in data set [3] of 99.5 ± 12.8%. On to `Cc1cccc([C@H](C)c2cnc[nH]2)c1C` [Dexmedetomidine], for which the recovery at 2 h, 2 µM in data set [1] was 111 ± 2.72%; in data set [2], 112 ± 10%.
